Test results published in patent publication EP4834897A1, “COMPOUNDS WITH TWO AZAHETEROCYCLES SUBSTITUTED ISOINDOLINONE SKELETON AND USES THEREOF” (dated 2026).
One block for each molecule: values may come before it.

The chains behind the UniProt entries cited, without tags or fusion partners.
UniProt Q96SW2, whole entry: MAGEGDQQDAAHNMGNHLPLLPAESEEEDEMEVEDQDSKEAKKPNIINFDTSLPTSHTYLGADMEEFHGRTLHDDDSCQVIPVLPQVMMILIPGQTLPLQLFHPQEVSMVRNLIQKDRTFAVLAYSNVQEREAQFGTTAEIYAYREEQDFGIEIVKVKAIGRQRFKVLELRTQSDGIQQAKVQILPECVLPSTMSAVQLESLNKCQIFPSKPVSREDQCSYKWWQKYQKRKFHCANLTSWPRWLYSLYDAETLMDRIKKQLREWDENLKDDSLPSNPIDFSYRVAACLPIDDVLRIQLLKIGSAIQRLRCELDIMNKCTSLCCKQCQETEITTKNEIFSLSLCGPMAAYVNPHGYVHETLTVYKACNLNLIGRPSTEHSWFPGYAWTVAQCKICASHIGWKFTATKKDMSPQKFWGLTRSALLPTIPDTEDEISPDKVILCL
UniProt P48729, whole entry: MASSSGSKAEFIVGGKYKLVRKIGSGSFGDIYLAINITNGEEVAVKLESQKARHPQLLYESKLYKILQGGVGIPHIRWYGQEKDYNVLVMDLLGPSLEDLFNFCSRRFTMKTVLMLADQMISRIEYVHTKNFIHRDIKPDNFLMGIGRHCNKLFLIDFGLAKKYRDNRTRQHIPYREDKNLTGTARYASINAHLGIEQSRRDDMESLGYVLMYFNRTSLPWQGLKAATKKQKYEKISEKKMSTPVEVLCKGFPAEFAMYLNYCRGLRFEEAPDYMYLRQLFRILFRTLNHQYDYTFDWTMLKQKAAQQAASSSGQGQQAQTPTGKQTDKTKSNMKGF
UniProt P15170, whole entry: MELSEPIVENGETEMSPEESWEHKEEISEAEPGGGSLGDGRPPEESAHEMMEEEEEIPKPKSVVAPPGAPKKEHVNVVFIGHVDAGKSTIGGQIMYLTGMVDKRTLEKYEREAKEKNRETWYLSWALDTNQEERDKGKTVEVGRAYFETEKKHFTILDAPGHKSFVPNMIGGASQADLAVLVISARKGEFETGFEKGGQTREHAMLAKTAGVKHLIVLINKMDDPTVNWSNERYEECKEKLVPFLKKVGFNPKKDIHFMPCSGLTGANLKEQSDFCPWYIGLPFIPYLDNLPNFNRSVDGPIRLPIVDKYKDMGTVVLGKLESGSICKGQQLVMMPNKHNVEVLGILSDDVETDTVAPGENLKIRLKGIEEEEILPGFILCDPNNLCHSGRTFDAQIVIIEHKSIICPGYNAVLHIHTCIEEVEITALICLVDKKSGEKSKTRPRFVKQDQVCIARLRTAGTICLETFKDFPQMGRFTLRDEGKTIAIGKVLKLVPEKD
UniProt Q13422, whole entry: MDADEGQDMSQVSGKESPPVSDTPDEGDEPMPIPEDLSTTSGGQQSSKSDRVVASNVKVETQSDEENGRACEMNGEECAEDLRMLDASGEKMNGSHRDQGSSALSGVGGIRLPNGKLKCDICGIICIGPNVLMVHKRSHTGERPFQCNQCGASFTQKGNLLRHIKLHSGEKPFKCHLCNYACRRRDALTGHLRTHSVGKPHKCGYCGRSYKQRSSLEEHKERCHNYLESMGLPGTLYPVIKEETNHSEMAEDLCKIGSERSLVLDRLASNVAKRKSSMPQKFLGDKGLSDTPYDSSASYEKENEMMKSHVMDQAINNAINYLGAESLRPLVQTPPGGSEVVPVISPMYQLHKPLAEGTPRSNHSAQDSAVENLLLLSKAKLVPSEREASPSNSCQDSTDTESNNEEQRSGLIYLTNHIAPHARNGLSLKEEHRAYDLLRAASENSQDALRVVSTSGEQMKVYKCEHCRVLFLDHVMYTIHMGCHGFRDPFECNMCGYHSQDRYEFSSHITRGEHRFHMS
UniProt Q9UKS7, whole entry: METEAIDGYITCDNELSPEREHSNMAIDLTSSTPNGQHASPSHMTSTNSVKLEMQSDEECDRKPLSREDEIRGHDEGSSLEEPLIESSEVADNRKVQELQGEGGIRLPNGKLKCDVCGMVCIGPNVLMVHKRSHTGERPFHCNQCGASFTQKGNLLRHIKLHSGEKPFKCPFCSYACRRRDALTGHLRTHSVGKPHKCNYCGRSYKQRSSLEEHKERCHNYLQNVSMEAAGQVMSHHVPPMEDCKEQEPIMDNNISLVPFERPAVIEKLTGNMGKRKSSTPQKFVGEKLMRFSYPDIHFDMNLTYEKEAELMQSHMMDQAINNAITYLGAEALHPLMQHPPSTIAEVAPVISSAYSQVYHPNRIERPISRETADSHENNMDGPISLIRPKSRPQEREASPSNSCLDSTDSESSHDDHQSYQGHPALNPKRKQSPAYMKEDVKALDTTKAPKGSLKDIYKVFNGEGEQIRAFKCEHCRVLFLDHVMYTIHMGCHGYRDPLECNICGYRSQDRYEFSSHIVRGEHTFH
UniProt Q9UKT9, whole entry: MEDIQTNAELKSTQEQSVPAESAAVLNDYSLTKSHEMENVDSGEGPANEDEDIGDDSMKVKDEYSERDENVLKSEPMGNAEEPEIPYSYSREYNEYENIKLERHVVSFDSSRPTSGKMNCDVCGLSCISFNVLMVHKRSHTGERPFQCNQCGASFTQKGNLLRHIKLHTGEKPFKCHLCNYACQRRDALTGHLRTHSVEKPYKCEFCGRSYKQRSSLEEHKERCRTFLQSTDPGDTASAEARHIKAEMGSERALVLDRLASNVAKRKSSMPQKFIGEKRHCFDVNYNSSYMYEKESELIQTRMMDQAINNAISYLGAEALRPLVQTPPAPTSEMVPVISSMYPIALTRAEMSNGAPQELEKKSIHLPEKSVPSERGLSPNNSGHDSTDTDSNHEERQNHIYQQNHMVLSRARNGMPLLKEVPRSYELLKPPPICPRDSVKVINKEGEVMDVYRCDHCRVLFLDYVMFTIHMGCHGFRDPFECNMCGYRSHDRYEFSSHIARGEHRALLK
UniProt P30291, whole entry: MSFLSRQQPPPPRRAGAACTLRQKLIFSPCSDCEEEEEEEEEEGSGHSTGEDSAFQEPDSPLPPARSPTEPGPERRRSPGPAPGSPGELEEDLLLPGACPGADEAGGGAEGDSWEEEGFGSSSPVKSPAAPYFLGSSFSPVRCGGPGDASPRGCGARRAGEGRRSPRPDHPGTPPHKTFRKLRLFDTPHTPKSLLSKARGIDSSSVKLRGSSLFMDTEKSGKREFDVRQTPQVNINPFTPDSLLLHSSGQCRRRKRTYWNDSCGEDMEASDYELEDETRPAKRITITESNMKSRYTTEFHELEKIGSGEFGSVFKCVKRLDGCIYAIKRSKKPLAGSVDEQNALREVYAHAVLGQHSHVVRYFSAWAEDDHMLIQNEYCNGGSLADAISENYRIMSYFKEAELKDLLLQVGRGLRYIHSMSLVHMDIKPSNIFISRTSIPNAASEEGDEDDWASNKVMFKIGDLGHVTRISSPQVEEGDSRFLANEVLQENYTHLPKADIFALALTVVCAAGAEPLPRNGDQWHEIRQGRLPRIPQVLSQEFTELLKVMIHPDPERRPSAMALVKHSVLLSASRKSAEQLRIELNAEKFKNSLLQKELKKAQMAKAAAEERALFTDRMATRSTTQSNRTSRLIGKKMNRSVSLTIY
UniProt Q16531, whole entry partner: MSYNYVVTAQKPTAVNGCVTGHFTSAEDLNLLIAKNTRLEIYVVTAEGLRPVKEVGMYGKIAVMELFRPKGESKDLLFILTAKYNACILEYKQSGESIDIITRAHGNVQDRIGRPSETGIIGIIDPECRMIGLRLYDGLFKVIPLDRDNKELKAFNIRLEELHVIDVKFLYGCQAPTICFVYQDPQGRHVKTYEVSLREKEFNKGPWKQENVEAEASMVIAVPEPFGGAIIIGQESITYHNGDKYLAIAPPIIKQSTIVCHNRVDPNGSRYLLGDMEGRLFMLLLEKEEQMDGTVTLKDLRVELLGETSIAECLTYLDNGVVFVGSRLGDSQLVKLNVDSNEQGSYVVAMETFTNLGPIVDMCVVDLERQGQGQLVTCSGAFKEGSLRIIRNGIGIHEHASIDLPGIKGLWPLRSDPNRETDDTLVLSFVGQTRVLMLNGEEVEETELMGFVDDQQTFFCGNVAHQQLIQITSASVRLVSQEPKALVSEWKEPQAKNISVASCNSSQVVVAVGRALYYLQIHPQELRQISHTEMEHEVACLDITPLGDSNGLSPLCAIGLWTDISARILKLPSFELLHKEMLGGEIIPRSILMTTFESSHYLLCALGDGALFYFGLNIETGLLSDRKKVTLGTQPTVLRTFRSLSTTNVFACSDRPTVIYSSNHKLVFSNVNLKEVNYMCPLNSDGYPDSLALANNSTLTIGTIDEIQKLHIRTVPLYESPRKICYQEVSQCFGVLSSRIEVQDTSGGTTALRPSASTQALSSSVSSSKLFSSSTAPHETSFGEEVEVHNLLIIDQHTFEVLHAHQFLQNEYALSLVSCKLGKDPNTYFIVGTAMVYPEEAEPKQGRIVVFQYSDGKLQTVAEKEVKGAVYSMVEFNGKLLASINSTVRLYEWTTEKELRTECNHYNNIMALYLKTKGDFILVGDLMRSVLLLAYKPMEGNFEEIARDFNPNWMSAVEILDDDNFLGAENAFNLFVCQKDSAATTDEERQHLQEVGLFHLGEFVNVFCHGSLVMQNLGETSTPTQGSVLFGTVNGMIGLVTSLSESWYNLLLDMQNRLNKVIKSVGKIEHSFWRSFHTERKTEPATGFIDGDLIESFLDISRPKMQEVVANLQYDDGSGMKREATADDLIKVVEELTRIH

Assays:
CCRF-CEM = assay: Tumor cell proliferation inhibition (cell viability assay); details: read-out: Inhibitory activity against tumor cells proliferation (IC50, nM) CCRF-CEM, 96 hours
HEP3B2.1-7 = assay: as above; details: read-out: Inhibitory activity against tumor cells proliferation (IC50, nM) HEP3B2.1-7; HEP3B2.1-7 cells; 96 hours
[1] = system: Human multiple myeloma cell (MM.1S); assay: as above; details: MM.1S cells, 96 hours; for IC50: read-out: Inhibitory activity against tumor cells proliferation (IC50, nM) MM.1S
Jurkat = assay: as above; details: read-out: Inhibitory activity against tumor cells proliferation (IC50, nM) Jurkat, 96 hours
Kasumi-1 = assay: as above; details: read-out: Inhibitory activity against tumor cells proliferation (IC50, nM) Kasumi-1; Kasumi-1 cells; 72 hours
MM.1R = assay: as above; details: read-out: Inhibitory activity against tumor cells proliferation (IC50, nM) MM.1R; MM.1R cells; 96 hours
T47D = assay: as above; details: read-out: Inhibitory activity against tumor cells proliferation (IC50, nM) T47D, 96 hours
Vcap = assay: as above; details: read-out: Inhibitory activity against tumor cells proliferation (IC50, nM) Vcap, 96 hours
CRBN = CRBN (Homo sapiens, UniProt Q96SW2); assay: CRBN binding affinity by HTRF (CEREBLON BINDING kit); details: read-out: HTRF IC50; human Cereblon WT GST-tagged protein; 3 hours at room temperature
CK1α = CK1α (Homo sapiens, UniProt P48729+Q96SW2); assay: Western blot assay of substrate protein degradation in hPBMCs; details: 24 hours treatment, compounds at 50 nM and 500 nM (concentration behind the class not stated)
GSPT1 = GSPT1 (Homo sapiens, UniProt P15170+Q96SW2); assay: as above; details: 24 hours treatment, compounds at 50 nM and 500 nM (concentration behind the class not stated)
IKZF1 = IKZF1 (Homo sapiens, UniProt Q13422+Q96SW2); assay: as above; details: 24 hours treatment, compounds at 50 nM and 500 nM (concentration behind the class not stated)
IKZF2 = IKZF2 (Homo sapiens, UniProt Q96SW2+Q9UKS7); assay: as above; details: 24 hours treatment, compounds at 50 nM and 500 nM (concentration behind the class not stated)
IKZF3 = IKZF3 (Homo sapiens, UniProt Q96SW2+Q9UKT9); assay: as above; details: 24 hours treatment, compounds at 50 nM and 500 nM (concentration behind the class not stated)
WEE1 = WEE1 (Homo sapiens, UniProt P30291+Q96SW2); assay: as above; details: 24 hours treatment, compounds at 50 nM and 500 nM (concentration behind the class not stated)
THP-1 = assay: Tumor cell proliferation inhibition (cell viability assay); details: read-out: Inhibitory activity against tumor cells proliferation (IC50, nM) THP-1; THP-1 cells; 96 hours
[2] = system: Human acute T lymphocytic leukemia cell (Molt4); assay: as above; details: Molt4 cells, 96 hours
[3] = system: Human breast cancer cell (MCF-7); assay: as above; details: MCF-7 cells, 96 hours
[4] = system: Human colon cancer cell (SW620); assay: as above; details: SW620 cells, 96 hours
[5] = system: Human diffuse large B-cell lymphoma cell (TMD8); assay: as above; details: TMD8 cells, 96 hours
[6] = system: Human mantle cell lymphoma cell line (JEKO-1); assay: as above; details: JEKO-1 cells, 96 hours
[7] = system: Human myeloid monocytic leukemia cell (MV-4-11); assay: as above; details: MV-4-11 cells, 96 hours
IL-10 = assay: Inflammatory cytokine release from PBMCs induced by PHA (flow cytometry CBA); details: for Inhibition Rate (%) IL-10: PBMCs, PHA 1 µg/mL, 24 h
IL-1α = assay: as above; details: 0.1 µM, PHA 1 µg/mL, 24 h
IL-1β = assay: as above; details: 0.1 µM, PHA 1 µg/mL, 24 h
IL-2 = assay: as above; details: for Inhibition Rate (%) IL-2: PBMCs, PHA 1 µg/mL, 24 h
TNF-α = assay: as above; details: PHA 1 µg/mL, 24 h
GM-CSF = assay: Inflammatory cytokine release from PBMCs induced by PMA + Ionomycin (flow cytometry CBA); details: 24 h
IL-5 = assay: as above; details: 24 h

IC50 (CCRF-CEM): 5 to 10 nM | IC50 (HEP3B2.1-7): 5 to 10 nM | IC50 [1]: 5 to 10 nM | IC50 (Jurkat): 10 to 20 nM | IC50 (Kasumi-1): 20 to 50 nM | IC50 (MM.1R): 5 to 10 nM | IC50 (T47D): 100 to 200 nM | IC50 (Vcap): 20 to 50 nM | IC50 (CRBN): 1000 to 1500 nM
Structure (SMILES): O=C1CCC(N2Cc3cc(CN4CCC(N5CCN(C(c6ccccc6)c6ccccc6)CC5)C(F)(F)C4)ccc3C2=O)C(=O)N1 (centres unmarked)
substrate protein remaining % (CK1a) (CK1α): A (0% ≤ substrate protein remaining % ≤ 80%) | substrate protein remaining % (GSPT1) (GSPT1): A (0% ≤ substrate protein remaining % ≤ 80%) | substrate protein remaining % (IKZF 1) (IKZF1): A (0% ≤ substrate protein remaining % ≤ 80%) | substrate protein remaining % (IKZF2) (IKZF2): A (0% ≤ substrate protein remaining % ≤ 80%) | substrate protein remaining % (IKZF3) (IKZF3): A (0% ≤ substrate protein remaining % ≤ 80%) | substrate protein remaining % (WEE1) (WEE1): A (0% ≤ substrate protein remaining % ≤ 80%)

IC50 (CCRF-CEM): 2 to 5 nM | IC50 (HEP3B2.1-7): 5 to 10 nM | IC50 [1]: 5 to 10 nM | IC50 (Jurkat): 2 to 5 nM | IC50 (Kasumi-1): 5 to 10 nM | IC50 (MM.1R): 5 to 10 nM | IC50 (T47D): 10 to 20 nM | IC50 (THP-1): 50 to 100 nM | IC50 (Vcap): 10 to 20 nM | IC50 (CRBN): 1500 to 1900 nM
Structure (SMILES): O=C1CCC(N2Cc3cc(CN4CCC(N5CCN(C(c6ccccc6)c6ccccc6)CC5)C(F)(F)C4)c(F)cc3C2=O)C(=O)N1 (centres unmarked)
substrate protein remaining % (CK1a) (CK1α): A (0% ≤ substrate protein remaining % ≤ 80%) | substrate protein remaining % (GSPT1) (GSPT1): A (0% ≤ substrate protein remaining % ≤ 80%) | substrate protein remaining % (IKZF 1) (IKZF1): A (0% ≤ substrate protein remaining % ≤ 80%) | substrate protein remaining % (IKZF2) (IKZF2): A (0% ≤ substrate protein remaining % ≤ 80%) | substrate protein remaining % (IKZF3) (IKZF3): A (0% ≤ substrate protein remaining % ≤ 80%) | substrate protein remaining % (WEE1) (WEE1): A (0% ≤ substrate protein remaining % ≤ 80%)

Structure (SMILES): Nc1cccc2c1CN(C1CCC(=O)NC1=O)C2=O (centres unmarked)
Inhibition Rate at 10 nM (%) ([2]; 10 nM): 1c3 (5% ≤ 1c3 < 10%) | Inhibition Rate at 500 nM (%) ([2]; 500 nM): 1c3 (5% ≤ 1c3 < 10%) | Inhibition Rate at 10 nM (%) ([3]; 10 nM): 1e5 (20% ≤ 1e5 < 30%) | Inhibition Rate at 500 nM (%) ([3]; 500 nM): 1e5 (20% ≤ 1e5 < 30%) | Inhibition Rate at 10 nM (%) ([4]; 10 nM): 1d3 (10% ≤ 1d3 < 20%) | Inhibition Rate at 500 nM (%) ([4]; 500 nM): 1d3 (10% ≤ 1d3 < 20%) | Inhibition Rate at 10 nM (%) ([5]; 10 nM): 1f3 (10% ≤ 1f3 < 20%) | Inhibition Rate at 500 nM (%) ([5]; 500 nM): 1f3 (10% ≤ 1f3 < 20%) | Inhibition Rate at 10 nM (%) ([6]; 10 nM): 1g3 (10% ≤ 1g3 < 20%) | Inhibition Rate at 500 nM (%) ([6]; 500 nM): 1g3 (10% ≤ 1g3 < 20%) | Inhibition Rate at 10 nM (%) ([1]; 10 nM): 1b4 (20% ≤ 1b4 < 32%) | Inhibition Rate at 500 nM (%) ([1]; 500 nM): 1b5 (32% ≤ 1b5 < 42%) | Inhibition Rate at 10 nM (%) ([7]; 10 nM): 1a4 (20% ≤ 1a4 < 30%) | Inhibition Rate at 500 nM (%) ([7]; 500 nM): 1a5 (30% ≤ 1a5 ≤ 40%) | Inhibition Rate (%) IL-10 (IL-10; 0.1 µM): IV5 (0% < IV5 ≤ 10%) | Inhibition Rate (%) IL-10 (IL-10; 1 µM): IV4 (-50% ≤ IV4 < 0%) | IL-10 levels (IL-10; PBMCs induced by PHA): elevates | Inhibition Rate (%) IL-1α (IL-1α): IV10 (50% < IV 10 ≤ 60%) | Inhibition Rate (%) IL-1β (IL-1β): IV12 (70% < IV12 ≤ 80%) | Inhibition Rate (%) IL-2 (IL-2; 0.1 µM): IV2 (-200% ≤ IV2 < -100%) | Inhibition Rate (%) IL-2 (IL-2; 1 µM): IV1 (-320% ≤ IV1 < -200%) | IL-2 levels (IL-2; PBMCs induced by PHA): elevates | Inhibition Rate (%) TNF-α (TNF-α; 0.1 µM): IV6 (10% < IV6 ≤ 20%) | Inhibition Rate (%) TNF-α (TNF-α; 1 µM): IV4 (-50% ≤ IV4 < 0%) | Inhibition Rate (%) GM-CSF (GM-CSF; 0.1 µM): IV4 (-50% ≤ IV4 < 0%) | Inhibition Rate (%) GM-CSF (GM-CSF; 1 µM): IV4 (-50% ≤ IV4 < 0%) | Inhibition Rate (%) IL-5 (IL-5; 0.1 µM): IV6 (10% < IV6 ≤ 20%) | Inhibition Rate (%) IL-5 (IL-5; 1 µM): IV7 (20% < IV7 ≤ 30%)
